{"source": "paper PMC12836348", "about": "“Alanine Mutagenesis Identifies Specific Amino Acids of Nemertide Alpha‑1 Activity and Its Binding to Target Receptors” (Journal of Natural Products, 2025)", "system": "Kv1.1", "test": "Ion channel panel, Kv1.1", "type": "cell-based", "parameters": "key: “+” means tested and produced effect; “–“ means tested but no effect", "settings": "S12A at 5 μM; Xenopus oocytes, n ≥ 3", "description": "To assess the concentration–response relationships, data were fitted with the Hill equation: y = 100/[1 + (EC50/[toxin])^ h ], where y is the amplitude of the toxin-induced effect (y = I 30 ms/I peak where I 30 ms is the current value at 30 ms in the presence of toxin and I peak is the peak current amplitude in control conditions), EC50 is the toxin concentration at half-maximal efficacy, [toxin] is the toxin concentration, and h is the Hill coefficient. Potassium and calcium currents were evoked by a 500 ms depolarization to the voltage corresponding to the maximal activation of the channels in control conditions from a holding potential of −90 mV. Elicited currents were sampled at 1 kHz and filtered at 0.5 kHz. […] ASIC1a currents were measured in ND96 solutions at a pH of 7.4 and 4.5, at a holding potential of −70 mV during 400 s, and the data were filtered at 20 Hz. EnaC currents were measured by clamping oocytes at a holding potential of −60 mV and perfusing with low- (1 mM) and high- (96 mM) sodium ND96. Opioid currents were measured by clamping the potential to −70 mV and changing the perfusion solution from ND96 to high-potassium (HK) solution composed of 96 mM KCl, 2 mM NaCl, 1 mM MgCl2, 1.8 mM CaCl2, and 5 mM HEPES, with a final pH of 7.5. […] TRPV1 and TRPA1 currents were continuously monitored in a perfusing ND96 solution, following a protocol at −90 mV for 400 s. […]", "data": [{"smiles": "CC[C@H](C)[C@@H]1NC(=O)[C@@H](NC(=O)CN)CSSC[C@@H]2NC(=O)[C@@H]3CSSC[C@@H](C(=O)N[C@@H](CC(N)=O)C(=O)N4C[C@H](O)C[C@H]4C(=O)N4C[C@H](O)C[C@H]4C(=O)N[C@@H](CC(N)=O)C(=O)N[C@@H](CCC(N)=O)C(=O)O)NC(=O)[C@H](CCCCN)NC(=O)[C@H](Cc4ccccc4)NC(=O)[C@H](CC(N)=O)NC(=O)[C@H](Cc4c[nH]c5ccccc45)NC(=O)CNC(=O)[C@H](CSSC[C@H](NC(=O)[C@H](Cc4ccccc4)NC(=O)[C@H](CO)NC(=O)CNC(=O)[C@H]([C@@H](C)O)NC(=O)[C@H](C)NC1=O)C(=O)N[C@@H]([C@@H](C)O)C(=O)N[C@@H](CC(C)C)C(=O)N[C@@H](C)C(=O)N[C@@H](CCCCN)C(=O)NCC(=O)N3)NC(=O)[C@H](CC(N)=O)NC(=O)[C@H](CCCCN)NC(=O)[C@H]([C@@H](C)O)NC2=O", "note": "[Peptide S12A]", "values": [{"measurement": "effect on Kv1.1", "value": "–"}]}]}
